pIC50: −log10 of the molar value.
Target: CDK-2 (Homo sapiens, UniProt P24941)
Experiment: CDK-2 inhibition, fluorescence polarization displacement assay
Conditions: inhibitory effectiveness toward CDK-2

CON=C[C@H](Cc1ccc(O)cc1)NC(=O)c1cc(C(=O)O)c2cc(-c3cccc(C(F)(F)F)c3)ccc2n1
pIC50: > 6.00

COC[C@H](Cc1ccc(O)cc1)NC(=O)c1cc(C(=O)O)c2cc(-c3cccc(CN4CCC(O)C4)c3)ccc2n1 (some centres unmarked)
pIC50: < 4.40

COC(=O)C(NC(=O)c1cc(C(=O)O)c2cc(-c3cccc(C(F)(F)F)c3)ccc2n1)c1ccc(O)cc1 (centres unmarked)
pIC50: 4.40 to 6.00

COC[C@H](Cc1ccc(O)cc1)NC(=O)c1cc(C(=O)O)c2cc(C#CCCO)ccc2n1
pIC50: < 4.40

O=C(N[C@@H](Cc1ccc(O)cc1)c1nnn[nH]1)c1cc(C(=O)O)c2cc(-c3cccc(C(F)(F)F)c3)ccc2n1
pIC50 (tested form: free acid): < 4.40

— patent EP1931657B1, “NOVEL HIGH AFFINITY QUINOLINE-BASED KINASE LIGANDS” (Merck Sharp & Dohme Corp., priority 2005, dated 2007)
